{"source": "patent US7452546B2", "about": "“Particles containing agricultural active ingredients” (priority 1997, dated 2008)", "origin": "cited, not measured here", "test_system": "plants", "details": "The Pesticide Manual, Eleventh Edition, 1997; cited from earlier work", "data": [{"compound": "CC(C)(C)C(=O)C(Oc1ccc(Cl)cc1)n1cncn1", "note": "(stereo not shown) [triadimefon]", "values": [{"measurement": "phytotoxicity to plants", "value": "can be phytotoxic to ornamental plants"}]}]}
